Data reported in patent US20240252445A1, “COMPOSITIONS AND METHODS OF PROMOTING AC[…] THERAPEUTIC AND DIAGNOSTIC AGENTS IN THE HEART” (CASE WESTERN RESERVE UNIVERSITY, priority 2021, published 2024).

Experiment: Clearance of ePL from systemic circulation
Details: mouse, in vivo

poly(L-lactic co glycolic acid) [ePL]
ePL persistence in the circulation: < 15 min
